Test results published in ChEMBL document CHEMBL1772952, “Further structure-activity relationship studies on 4-((((3S,6S)-6-benzhydryltetrahydro-2H-pyran-3-yl)amino)methyl)phenol: identification of compounds with triple uptake inhibitory activity as potential antidepressant agents” (J Med Chem, 2011).

By UniProt entry, the sequences of proteins in these tests, tags left out.
UniProt P31652, whole entry: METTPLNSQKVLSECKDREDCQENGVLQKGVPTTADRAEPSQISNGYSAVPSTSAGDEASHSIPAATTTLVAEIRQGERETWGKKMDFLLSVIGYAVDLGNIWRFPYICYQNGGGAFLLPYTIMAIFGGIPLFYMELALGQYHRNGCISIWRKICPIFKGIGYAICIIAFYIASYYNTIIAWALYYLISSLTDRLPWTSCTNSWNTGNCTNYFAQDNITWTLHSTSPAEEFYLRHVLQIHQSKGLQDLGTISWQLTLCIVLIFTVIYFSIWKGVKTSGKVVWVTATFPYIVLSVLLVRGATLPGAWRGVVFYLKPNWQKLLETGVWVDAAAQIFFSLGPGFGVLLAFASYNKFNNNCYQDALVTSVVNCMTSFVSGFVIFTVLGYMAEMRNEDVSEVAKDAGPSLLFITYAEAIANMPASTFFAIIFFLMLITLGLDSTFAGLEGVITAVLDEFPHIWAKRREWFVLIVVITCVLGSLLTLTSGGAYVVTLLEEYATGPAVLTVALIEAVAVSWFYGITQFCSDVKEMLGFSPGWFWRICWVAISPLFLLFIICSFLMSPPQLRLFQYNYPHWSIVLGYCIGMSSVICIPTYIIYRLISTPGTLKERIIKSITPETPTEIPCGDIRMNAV
UniProt P23977, whole entry: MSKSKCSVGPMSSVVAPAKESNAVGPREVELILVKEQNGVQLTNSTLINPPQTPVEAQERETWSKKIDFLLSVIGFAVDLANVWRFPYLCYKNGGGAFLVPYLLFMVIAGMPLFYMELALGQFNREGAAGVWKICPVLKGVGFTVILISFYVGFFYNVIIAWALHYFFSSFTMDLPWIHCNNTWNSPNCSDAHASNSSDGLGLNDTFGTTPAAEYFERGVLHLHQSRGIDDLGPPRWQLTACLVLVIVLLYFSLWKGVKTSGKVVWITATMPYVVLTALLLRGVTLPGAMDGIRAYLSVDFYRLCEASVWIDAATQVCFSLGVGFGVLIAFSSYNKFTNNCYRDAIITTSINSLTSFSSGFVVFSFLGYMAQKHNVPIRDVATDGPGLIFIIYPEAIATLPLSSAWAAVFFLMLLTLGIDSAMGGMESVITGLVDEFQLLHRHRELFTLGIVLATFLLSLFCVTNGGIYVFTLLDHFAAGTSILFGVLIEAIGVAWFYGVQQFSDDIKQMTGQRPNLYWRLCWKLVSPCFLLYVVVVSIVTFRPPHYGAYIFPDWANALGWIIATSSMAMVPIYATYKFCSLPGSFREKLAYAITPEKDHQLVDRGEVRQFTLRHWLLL

Tests used:
Type in all cases: tissue-based
[1] = target: Sodium-dependent serotonin transporter (Rattus norvegicus, UniProt P31652); experiment: Inhibition of SERT in rat cerebral cortex assessed as [3H]serotonin accumulation
How it was run: (§1)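 Uptake of [3H]dopamine (DAT, rat striatum) or [3H]serotonin (SERT, rat cerebral cortex) was measured with at least five triplicate concentrations spaced around the IC50. IC50 came from nonlinear curve fitting and was converted to Ki by Cheng-Prusoff. Values are mean ± SEM of 3–8 independent experiments.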

[2] = Inhibition of NET in rat cerebral cortex assessed as [3H]norepinephrine accumulation
How it was run: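 Rat cerebral cortex tissue; uptake of [3H]norepinephrine via NET measured. At least five concentrations per compound, each in triplicate, spaced evenly around the IC50. IC50 obtained by nonlinear curve fitting, then converted to Ki by Cheng-Prusoff. Values are mean ± SEM of three to eight independent experiments.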

[3] = target: Sodium-dependent dopamine transporter (Rattus norvegicus, UniProt P23977); experiment: Inhibition of DAT in rat striatum assessed as [3H]dopamine accumulation; how it was run: as §1

SMILES: O[C@@H]1C[C@@H](C(c2ccccc2)c2ccccc2)OC[C@H]1NCc1ccc2[nH]ccc2c1 (single isomer, unassigned)
- Ki [1]: 25 nM

SMILES: COc1ccc(CN[C@H]2CC[C@@H](C(c3ccccc3)c3ccccc3)OC2)cc1
- Ki [1]: 12.9 nM

SMILES: COc1ccc(CN[C@@H]2CO[C@H](C(c3ccccc3)c3ccccc3)C[C@H]2O)cc1
- Ki [2]: 29.3 nM
- Ki [3]: 37.4 nM
- Ki [1]: 14.7 nM
